Test results reported in PMC7611940, “A Conformation Selective Mode of Inhibiting SRC Improves Drug Efficacy and Tolerability” (Cancer Research, 2021).

Chains of the proteins cited; added tags and fusions are not shown. Lines headed by an entry give the natural chain unless they say otherwise; changes in a name come on top.
UniProt Q92630: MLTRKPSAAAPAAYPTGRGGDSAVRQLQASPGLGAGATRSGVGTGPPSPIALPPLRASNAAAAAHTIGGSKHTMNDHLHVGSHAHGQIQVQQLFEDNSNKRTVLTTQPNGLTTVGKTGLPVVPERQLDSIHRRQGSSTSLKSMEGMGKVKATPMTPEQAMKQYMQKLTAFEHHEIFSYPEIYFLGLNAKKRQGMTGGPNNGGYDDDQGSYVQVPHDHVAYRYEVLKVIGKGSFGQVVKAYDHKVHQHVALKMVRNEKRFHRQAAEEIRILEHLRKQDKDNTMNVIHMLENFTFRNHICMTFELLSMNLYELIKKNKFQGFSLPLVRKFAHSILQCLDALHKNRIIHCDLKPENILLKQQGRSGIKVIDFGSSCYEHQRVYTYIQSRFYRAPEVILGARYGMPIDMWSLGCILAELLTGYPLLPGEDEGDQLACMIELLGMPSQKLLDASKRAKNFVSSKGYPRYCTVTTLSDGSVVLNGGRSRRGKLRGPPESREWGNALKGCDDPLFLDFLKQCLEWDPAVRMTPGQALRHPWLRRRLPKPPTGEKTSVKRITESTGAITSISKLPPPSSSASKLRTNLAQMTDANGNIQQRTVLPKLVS
UniProt P42685: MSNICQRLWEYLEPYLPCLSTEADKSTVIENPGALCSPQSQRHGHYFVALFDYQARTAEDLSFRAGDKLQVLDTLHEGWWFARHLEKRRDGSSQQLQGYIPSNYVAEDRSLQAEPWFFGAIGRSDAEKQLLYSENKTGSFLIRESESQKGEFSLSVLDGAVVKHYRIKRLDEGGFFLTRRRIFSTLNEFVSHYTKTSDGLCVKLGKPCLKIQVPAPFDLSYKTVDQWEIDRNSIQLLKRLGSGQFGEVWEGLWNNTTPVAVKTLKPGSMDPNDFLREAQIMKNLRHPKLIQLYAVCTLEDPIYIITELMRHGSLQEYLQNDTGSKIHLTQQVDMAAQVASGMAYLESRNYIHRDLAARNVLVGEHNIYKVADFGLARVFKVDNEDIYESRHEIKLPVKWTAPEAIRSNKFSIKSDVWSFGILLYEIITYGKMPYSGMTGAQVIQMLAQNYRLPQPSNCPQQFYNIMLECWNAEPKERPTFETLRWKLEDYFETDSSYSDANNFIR

Experiments:
[1] = system: BT-474; experiment: cells; settings: Homo sapiens, BT-474, 120 h, read-out: eCF506 GI50 (in uM)
[2] = system: BT-549; experiment: cells; settings: Homo sapiens, BT-549, 120 h, read-out: eCF506 GI50 (in uM)
[3] = system: CAMA-1; experiment: cells; settings: Homo sapiens, CAMA-1, 120 h, read-out: eCF506 GI50 (in uM)
[4] = system: HCC-1569; experiment: cells; settings: Homo sapiens, HCC1569, 120 h, read-out: eCF506 GI50 (in uM)
[5] = system: HCC-1954; experiment: cells; settings: Homo sapiens, HCC1954, 120 h, read-out: eCF506 GI50 (in uM)
[6] = system: JIMT-1; experiment: cells; settings: Homo sapiens, JIMT-1, 120 h, read-out: eCF506 GI50 (in uM)
[7] = system: KPL-4; experiment: cells; settings: KPL4, 120 h, read-out: eCF506 GI50 (in uM)
[8] = system: MCF-7; experiment: cells; settings: Homo sapiens, MCF7, 120 h, read-out: eCF506 GI50 (in uM)
[9] = system: MDA-MB-157; experiment: cells; settings: Homo sapiens, MDA-MB-157, 120 h, read-out: eCF506 GI50 (in uM)
[10] = system: MDA-MB-231; experiment: cells; settings: Homo sapiens, MDA-MB-231, 120 h, read-out: eCF506 GI50 (in uM)
[11] = system: MDA-MB-436; experiment: cells; settings: Homo sapiens, MDA-MB-436, 120 h, read-out: eCF506 GI50 (in uM)
[12] = system: SKBR-3; experiment: cells; settings: Homo sapiens, SK-BR-3, 120 h, read-out: eCF506 GI50 (in uM)
[13] = system: SUM44PE; experiment: cells; settings: 120 h, read-out: eCF506 GI50 (in uM)
[14] = system: T-47D; experiment: cells; settings: Homo sapiens, T47D, 120 h, read-out: eCF506 GI50 (in uM)
[15] = system: ZR75.1; experiment: cells; settings: Homo sapiens, ZR-75-1, 120 h, read-out: eCF506 GI50 (in uM)
[16] = molecular target: DYRK2 (Homo sapiens, UniProt Q92630); experiment: biochemical; settings: read-out: % remaining activity
[17] = molecular target: FRK (Homo sapiens, UniProt P42685); experiment: biochemical; settings: read-out: % remaining activity

GI50 [1]: 2.99 µM
GI50 [2]: 0.155 µM
GI50 [4]: 3.59 µM
GI50 [5]: 1.79 µM
GI50 [8]: 0.0147 µM
GI50 [9]: 0.02 µM
GI50 [10]: 0.016 µM
GI50 [11]: 27 µM
GI50 [12]: 7.8 µM
GI50 [14]: 0.149 µM
remaining activity at 1 µM [16]: 98.2%
remaining activity at 1 µM [17]: 2.4%
Structure (SMILES): COc1cc(-c2nn(CCN3CCC(N(C)C)CC3)c3ncnc(N)c23)ccc1NC(=O)OC(C)(C)C [eCF506]
GI50 [3]: 8.75 µM
GI50 [6]: 0.222 µM
GI50 [7]: 12.8 µM
GI50 [13]: 50.8 µM
GI50 [15]: 0.0218 µM
